Assay results reported in patent publication US10485854B2, “Method of reducing biofilms” (Lysando AG, priority 2010, dated 2019).
Like-named read-outs stand apart in the source and are kept apart here.

Experiments:
Pseudomonas putida G1 = assay type: cell-based; conditions: 0.5 mM EDTA, no endolysin
Escherichia coli WK6 = assay type: cell-based; conditions: 0.5 mM EDTA, no endolysin

Structure (SMILES): O=C([O-])CN(CCN(CC(=O)[O-])CC(=O)O)CC(=O)O.[Na+].[Na+] [EDTA, reference compound]
- antibacterial activity as the relative inactivation in logarithmic units (log10N0/Ni) (Pseudomonas putida G1; 30 minutes (Table 12)): 0.072 +/− 0.084 logarithmic units
- antibacterial activity as the relative inactivation in logarithmic units (log10N0/Ni) (Pseudomonas putida G1; 30 minutes (Table 15)): 0.412 +/− 0.055 logarithmic units
- antibacterial activity as the relative inactivation in logarithmic units (log10N0/Ni) (Escherichia coli WK6; 30 minutes (Table 10)): 0.393 +/− 0.035 logarithmic units
- antibacterial activity as the relative inactivation in logarithmic units (log10N0/Ni) (Escherichia coli WK6; 30 minutes (Table 12)): 0.153 +/− 0.046 logarithmic units
- antibacterial activity as the relative inactivation in logarithmic units (log10N0/Ni) (Escherichia coli WK6; 30 minutes (Table 15)): 0.592 +/− 0.113 logarithmic units
